{
  "source": "paper PMC11533527",
  "about": "“A yeast two-hybrid system to obtain triple-helical ligands from combinatorial random peptide libraries” (The Journal of Biological Chemistry, 2024)",
  "key": {"[1]": {"details": "CD, [θ]225 with increasing temperature from 4 to 85 °C at 18 °C per hour; peptides in PBS, heated 95 °C 5 min, stored 4 °C overnight; Tm = temperature of minimum slope", "procedure": "The peptides were synthesized by Fmoc-based solid-phase synthesis and purified by RP-HPLC (Figs. S3 and S4). The conformational state of the synthetic peptides was analyzed by circular dichroism (CD) spectrometry.\nCD spectra were recorded on a J-820 CD spectropolarimeter (JASCO, Tokyo, Japan) equipped with a Peltier thermal controller using a 0.5-mm path-length quartz cuvette and connected to a data station for signal averaging. The peptides in PBS were heated at 95 °C for 5 min, incubated at room temperature for 10 min, and stored at 4 °C overnight to allow the formation of the triple-helical structure. Data were obtained using continuous wavelength scans from 200 to 260 nm. The spectra are reported in terms of ellipticity units per mole of amino acid residue [θ]mrw. Triple-helix thermostability was monitored by observation of each peptide [θ]225 value with increasing temperature from 4 to 85 °C at 18 °C per hour. The obtained molar ellipticity was differentiated to calculate the slopes at each temperature, and the temperature at which the minimum value was obtained was taken as the melting temperature of the triple helix (Tm)."}, "GST-PEDF": {"target": "T1, GST-PEDF (Mus musculus, UniProt P97298)", "T1 construct": "made in house", "T1 sequence (P97298 20-417)": "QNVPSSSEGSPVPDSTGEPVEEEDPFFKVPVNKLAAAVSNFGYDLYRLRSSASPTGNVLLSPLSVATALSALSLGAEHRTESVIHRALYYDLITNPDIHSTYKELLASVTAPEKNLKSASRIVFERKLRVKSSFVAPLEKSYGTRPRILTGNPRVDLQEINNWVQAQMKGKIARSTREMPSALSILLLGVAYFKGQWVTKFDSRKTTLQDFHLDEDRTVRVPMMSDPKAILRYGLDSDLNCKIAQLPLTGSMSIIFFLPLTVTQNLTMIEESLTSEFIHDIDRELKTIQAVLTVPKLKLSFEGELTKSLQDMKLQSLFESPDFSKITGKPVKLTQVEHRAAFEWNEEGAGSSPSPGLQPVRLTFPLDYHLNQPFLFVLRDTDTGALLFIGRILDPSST", "assay": "Competitive ELISA: binding of GST-PEDF to type I collagen-coated wells in the presence of the synthetic peptides", "details": "from IC50 values of competitive ELISA; F-test; assuming 1:1 binding of trimeric peptide to PEDF", "procedure": "We performed a competitive enzyme-linked immunosorbent assay (ELISA) to evaluate the relative binding affinity of the synthetic peptides to PEDF. In this assay, a competitive decrease in the binding of glutathione S-transferase (GST)-PEDF-fusion protein to the type I collagen-coated wells by the addition of the peptides was quantified by immuno-enzymatic colorimetric detection. […] The relative PEDF-binding affinity of the peptides was evaluated using the IC50 values derived from the binding inhibitory curves (Table 2 and Fig. 5).\nGST-fused PEDF was prepared in accordance with a previous report (Fig. S7) ([15]). The synthetic peptides were annealed by the above method before being used in the assay. Wells were coated with 10 μg/ml collagen I (Koken, Tokyo, Japan) overnight. After coating, wells were blocked with 0.5% skim milk in ELISA buffer [20 mM HEPES-Na (pH 7.4), 100 mM NaCl, 0.005% Tween 20]. The annealed peptides were preincubated with 3 nM GST-PEDF to be tested in the ELISA buffer for 10 min at room temperature. The mixtures were added to wells and incubated for 90 min at 4 °C. […] After 30 min, the absorbance at 405 nm was measured on a Vient XS multiwell plate reader (DS Pharma, Osaka, Japan). […] The p-value was calculated from an F-test."}},
  "data": [
    {"smiles": "CC(C)C[C@H](NC(=O)CNC(=O)[C@H](Cc1c[nH]cn1)NC(=O)[C@H](Cc1ccccc1)NC(=O)CNC(=O)[C@H](CCCNC(=N)N)NC(=O)[C@H](CCCNC(=N)N)NC(=O)CNC(=O)[C@H](CCCCN)NC(=O)[C@@H]1CCCN1C(=O)CNC(=O)[C@@H]1C[C@@H](O)CN1C(=O)[C@@H]1CCCN1C(=O)CNC(=O)[C@@H]1C[C@@H](O)CN1C(=O)[C@@H]1CCCN1C(=O)CNC(=O)[C@@H]1C[C@@H](O)CN1C(=O)[C@@H]1CCCN1C(=O)CNC(=O)[C@@H]1C[C@@H](O)CN1C(=O)[C@@H]1CCCN1C(=O)[C@@H](N)Cc1ccc(O)cc1)C(=O)N1C[C@H](O)C[C@H]1C(=O)NCC(=O)N1CCC[C@H]1C(=O)N1C[C@H](O)C[C@H]1C(=O)NCC(=O)N1CCC[C@H]1C(=O)N1C[C@H](O)C[C@H]1C(=O)NCC(=O)N1CCC[C@H]1C(=O)N1C[C@H](O)C[C@H]1C(=O)NCC(=O)N1CCC[C@H]1C(=O)N1C[C@H](O)C[C@H]1C(=O)NCC(=O)N1CCC[C@H]1C(N)=O", "note": "[pep7]", "values": [
      {"measurement": "Melting temperature of the triple helix (Tm)", "setting": "[1]", "value": 35.0, "unit": "°C"},
      {"measurement": "Binding affinity to PEDF relative to pepα1(I)930–938", "setting": "GST-PEDF", "value": "more potent"}
    ]},
    {"smiles": "CC(C)C[C@H](NC(=O)CNC(=O)[C@H](CCCNC(=N)N)NC(=O)[C@@H]1CCCN1C(=O)CNC(=O)[C@H](CCCNC(=N)N)NC(=O)[C@@H]1CCCN1C(=O)CNC(=O)[C@@H]1C[C@@H](O)CN1C(=O)[C@@H]1CCCN1C(=O)CNC(=O)[C@@H]1C[C@@H](O)CN1C(=O)[C@@H]1CCCN1C(=O)CNC(=O)[C@@H]1C[C@@H](O)CN1C(=O)[C@@H]1CCCN1C(=O)CNC(=O)[C@@H]1C[C@@H](O)CN1C(=O)[C@@H]1CCCN1C(=O)[C@@H](N)Cc1ccc(O)cc1)C(=O)N[C@H](C(=O)NCC(=O)N[C@@H](Cc1ccccc1)C(=O)N1C[C@H](O)C[C@H]1C(=O)NCC(=O)N1CCC[C@H]1C(=O)N1C[C@H](O)C[C@H]1C(=O)NCC(=O)N1CCC[C@H]1C(=O)N1C[C@H](O)C[C@H]1C(=O)NCC(=O)N1CCC[C@H]1C(=O)N1C[C@H](O)C[C@H]1C(=O)NCC(=O)N1CCC[C@H]1C(=O)N1C[C@H](O)C[C@H]1C(=O)NCC(=O)N1CCC[C@H]1C(N)=O)[C@@H](C)O", "note": "[pep5]", "values": [
      {"measurement": "Melting temperature of the triple helix (Tm)", "setting": "[1]", "value": 53.8, "unit": "°C"}
    ]},
    {"smiles": "CC(C)C[C@H](NC(=O)[C@H](Cc1ccccc1)NC(=O)CNC(=O)[C@H](CCCNC(=N)N)NC(=O)[C@H](Cc1c[nH]cn1)NC(=O)CNC(=O)[C@H](CCCNC(=N)N)NC(=O)[C@@H]1CCCN1C(=O)CNC(=O)[C@@H]1C[C@@H](O)CN1C(=O)[C@@H]1CCCN1C(=O)CNC(=O)[C@@H]1C[C@@H](O)CN1C(=O)[C@@H]1CCCN1C(=O)CNC(=O)[C@@H]1C[C@@H](O)CN1C(=O)[C@@H]1CCCN1C(=O)CNC(=O)[C@@H]1C[C@@H](O)CN1C(=O)[C@@H]1CCCN1C(=O)[C@@H](N)Cc1ccc(O)cc1)C(=O)NCC(=O)N[C@@H](CC(C)C)C(=O)N1C[C@H](O)C[C@H]1C(=O)NCC(=O)N1CCC[C@H]1C(=O)N1C[C@H](O)C[C@H]1C(=O)NCC(=O)N1CCC[C@H]1C(=O)N1C[C@H](O)C[C@H]1C(=O)NCC(=O)N1CCC[C@H]1C(=O)N1C[C@H](O)C[C@H]1C(=O)NCC(=O)N1CCC[C@H]1C(=O)N1C[C@H](O)C[C@H]1C(=O)NCC(=O)N1CCC[C@H]1C(N)=O", "note": "[pep3]", "values": [
      {"measurement": "Melting temperature of the triple helix (Tm)", "setting": "[1]", "value": 43.6, "unit": "°C"}
    ]},
    {"smiles": "C[C@@H](O)[C@H](NC(=O)[C@H](Cc1ccccc1)NC(=O)CNC(=O)[C@H](CCCNC(=N)N)NC(=O)[C@@H]1CCCN1C(=O)CNC(=O)[C@H](CCCNC(=N)N)NC(=O)[C@@H]1CCCN1C(=O)CNC(=O)[C@@H]1C[C@@H](O)CN1C(=O)[C@@H]1CCCN1C(=O)CNC(=O)[C@@H]1C[C@@H](O)CN1C(=O)[C@@H]1CCCN1C(=O)CNC(=O)[C@@H]1C[C@@H](O)CN1C(=O)[C@@H]1CCCN1C(=O)CNC(=O)[C@@H]1C[C@@H](O)CN1C(=O)[C@@H]1CCCN1C(=O)[C@@H](N)Cc1ccc(O)cc1)C(=O)NCC(=O)N[C@@H](Cc1ccccc1)C(=O)N1C[C@H](O)C[C@H]1C(=O)NCC(=O)N1CCC[C@H]1C(=O)N1C[C@H](O)C[C@H]1C(=O)NCC(=O)N1CCC[C@H]1C(=O)N1C[C@H](O)C[C@H]1C(=O)NCC(=O)N1CCC[C@H]1C(=O)N1C[C@H](O)C[C@H]1C(=O)NCC(=O)N1CCC[C@H]1C(=O)N1C[C@H](O)C[C@H]1C(=O)NCC(=O)N1CCC[C@H]1C(N)=O", "note": "[pep10]", "values": [
      {"measurement": "Melting temperature of the triple helix (Tm)", "setting": "[1]", "value": 57.6, "unit": "°C"},
      {"measurement": "Binding affinity to PEDF relative to pepα1(I)930–938", "setting": "GST-PEDF", "value": "comparable"}
    ]},
    {"smiles": "CSCC[C@H](NC(=O)[C@H](Cc1ccccc1)NC(=O)CNC(=O)[C@H](CCCNC(=N)N)NC(=O)[C@H](CCCNC(=N)N)NC(=O)CNC(=O)[C@H](CC(N)=O)NC(=O)[C@@H]1CCCN1C(=O)CNC(=O)[C@@H]1C[C@@H](O)CN1C(=O)[C@@H]1CCCN1C(=O)CNC(=O)[C@@H]1C[C@@H](O)CN1C(=O)[C@@H]1CCCN1C(=O)CNC(=O)[C@@H]1C[C@@H](O)CN1C(=O)[C@@H]1CCCN1C(=O)CNC(=O)[C@@H]1C[C@@H](O)CN1C(=O)[C@@H]1CCCN1C(=O)[C@@H](N)Cc1ccc(O)cc1)C(=O)NCC(=O)N[C@@H](CCSC)C(=O)N1C[C@H](O)C[C@H]1C(=O)NCC(=O)N1CCC[C@H]1C(=O)N1C[C@H](O)C[C@H]1C(=O)NCC(=O)N1CCC[C@H]1C(=O)N1C[C@H](O)C[C@H]1C(=O)NCC(=O)N1CCC[C@H]1C(=O)N1C[C@H](O)C[C@H]1C(=O)NCC(=O)N1CCC[C@H]1C(=O)N1C[C@H](O)C[C@H]1C(=O)NCC(=O)N1CCC[C@H]1C(N)=O", "note": "[pep6]", "values": [
      {"measurement": "Melting temperature of the triple helix (Tm)", "setting": "[1]", "value": 37.0, "unit": "°C"}
    ]},
    {"smiles": "CC(C)C[C@H](NC(=O)CNC(=O)[C@H](CCCNC(=N)N)NC(=O)[C@H](CCCNC(=N)N)NC(=O)CNC(=O)[C@@H](NC(=O)[C@@H]1CCCN1C(=O)CNC(=O)[C@@H]1C[C@@H](O)CN1C(=O)[C@@H]1CCCN1C(=O)CNC(=O)[C@@H]1C[C@@H](O)CN1C(=O)[C@@H]1CCCN1C(=O)CNC(=O)[C@@H]1C[C@@H](O)CN1C(=O)[C@@H]1CCCN1C(=O)CNC(=O)[C@@H]1C[C@@H](O)CN1C(=O)[C@@H]1CCCN1C(=O)[C@@H](N)Cc1ccc(O)cc1)C(C)C)C(=O)N[C@@H](CO)C(=O)NCC(=O)N[C@@H](CC(C)C)C(=O)N1C[C@H](O)C[C@H]1C(=O)NCC(=O)N1CCC[C@H]1C(=O)N1C[C@H](O)C[C@H]1C(=O)NCC(=O)N1CCC[C@H]1C(=O)N1C[C@H](O)C[C@H]1C(=O)NCC(=O)N1CCC[C@H]1C(=O)N1C[C@H](O)C[C@H]1C(=O)NCC(=O)N1CCC[C@H]1C(=O)N1C[C@H](O)C[C@H]1C(=O)NCC(=O)N1CCC[C@H]1C(N)=O", "note": "[pep11]", "values": [
      {"measurement": "Melting temperature of the triple helix (Tm)", "setting": "[1]", "value": 41.8, "unit": "°C"}
    ]}
  ]
}
